# Results taken from patent publication US20260116920A1, “HUMAN TRANSFERRIN RECEPTOR BINDING PEPTIDE” (PEPTIDREAM INC., priority 2021, published 2026).
# Protein sequences, listed by entry. Tags and fused reporters are not part of them. Residues count along the entry.
# UniProt P02786, 89-760 limits assumed: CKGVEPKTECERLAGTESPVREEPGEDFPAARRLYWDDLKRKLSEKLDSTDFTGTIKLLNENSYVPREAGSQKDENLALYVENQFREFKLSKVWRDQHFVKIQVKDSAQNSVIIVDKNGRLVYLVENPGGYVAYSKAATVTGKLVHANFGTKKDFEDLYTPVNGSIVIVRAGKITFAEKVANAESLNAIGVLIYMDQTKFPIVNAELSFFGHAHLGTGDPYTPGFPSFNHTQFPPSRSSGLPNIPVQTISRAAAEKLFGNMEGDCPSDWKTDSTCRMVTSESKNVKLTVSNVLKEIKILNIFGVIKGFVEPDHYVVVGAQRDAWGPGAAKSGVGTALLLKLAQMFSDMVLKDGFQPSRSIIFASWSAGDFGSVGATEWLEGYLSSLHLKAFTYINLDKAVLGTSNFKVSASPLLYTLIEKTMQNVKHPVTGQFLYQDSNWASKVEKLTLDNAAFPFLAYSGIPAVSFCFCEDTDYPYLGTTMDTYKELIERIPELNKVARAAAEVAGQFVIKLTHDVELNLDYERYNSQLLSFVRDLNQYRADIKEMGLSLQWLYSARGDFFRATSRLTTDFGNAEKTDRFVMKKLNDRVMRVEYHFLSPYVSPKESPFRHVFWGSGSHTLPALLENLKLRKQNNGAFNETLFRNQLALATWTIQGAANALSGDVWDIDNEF
# Biological target: T1, human transferrin receptor (hTfR) (Homo sapiens, UniProt P02786)
# T1 construct: made in house
# Assay: Evaluation of molecular interaction between transferrin receptor (hTfR) and peptide using surface plasmon resonance (SPR)
# Type: binding
# Details: KD class of peptide with linker binding to hTfR, by SPR (TABLE 5); read-out: SPR
# Method in brief: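 SPR, single-cycle kinetics; hTfR dimer on NTA chip via Ni capture plus EDC/NHS coupling. Analyte peptide 100, 50, 25, 10, 5 nM. Running buffer: 10 mM HEPES pH 8.0, 150 mM NaCl, 0.05% Tween 20, 0.1% BSA, 1.0% DMSO. KD by least-squares fit.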
row,SMILES,Kd [nM]
1,CC[C@H](C)[C@@H]1NC(=O)[C@H](Cc2ccc(OCC(=O)O)cc2)NC(=O)[C@H](Cc2ccc(N)nc2)NC(=O)[C@H](CC(N)=O)NC(=O)[C@H](Cc2c[nH]c3ccccc23)NC(=O)[C@H](C(C)C)NC(=O)[C@H](Cc2cccc(Cl)c2)N(C)C(=O)[C@H](C(C)C)NC(=O)[C@H](C)NC(=O)CSC[C@@H](C(=O)NCC(=O)N[C@H](CO)C(=O)N[C@H](CO)C(=O)N[C@H](CO)C(=O)N[C@H](CO)C(=O)N[C@H](CCC(=O)O)C(=O)N[C@H](CCCCN)C(N)=O)NC(=O)[C@H](Cc2ccc(O)cc2)N(C)C(=O)[C@H](Cc2cccc(C(=O)O)c2)NC(=O)[C@H](CCCNC(=N)N)NC(=O)[C@H](CCC(=O)NCCOCCOCCOCCOCCOCCOCCOCCOC)NC(=O)[C@H]([C@@H](C)CC)NC1=O [compound 344],1 to 100
2,CC[C@H](C)[C@@H]1NC(=O)[C@H](Cc2ccc(OCC(=O)O)cc2)NC(=O)[C@H](Cc2ccc(N)nc2)NC(=O)[C@H](CC(N)=O)NC(=O)[C@H](Cc2c[nH]c3ncccc23)NC(=O)[C@H](C(C)C)NC(=O)[C@H](Cc2cccc(Cl)c2)N(C)C(=O)[C@H](C(C)C)NC(=O)[C@H](C)NC(=O)CSC[C@@H](C(=O)NCC(=O)N[C@H](CCC(=O)O)C(=O)N[C@H](CCC(=O)O)C(=O)N[C@H](CCC(=O)O)C(=O)N[C@H](CO)C(=O)N[C@H](CO)C(=O)N[C@@H](CCCCN=[N+]=[N-])C(N)=O)NC(=O)[C@H](Cc2ccc(O)cc2)N(C)C(=O)[C@H](Cc2cccc(C(=O)O)c2)NC(=O)[C@H](CCCNC(=N)N)NC(=O)[C@H](CCC(=O)NCCOCCOCCOCCOCCOCCOCCOCCOC)NC(=O)[C@H]([C@@H](C)CC)NC1=O [compound 345],100 to 1000
3,CC[C@H](C)[C@@H]1NC(=O)[C@H](Cc2ccc(OCC(=O)O)cc2)NC(=O)[C@H](Cc2ccc(O)cc2)NC(=O)[C@H](CC(N)=O)NC(=O)[C@H](Cc2c[nH]c3ncccc23)NC(=O)[C@H](C(C)C)NC(=O)[C@H](Cc2cccc(Cl)c2)N(C)C(=O)[C@H](C(C)C)NC(=O)[C@H](C)NC(=O)CSC[C@@H](C(=O)NCC(=O)N[C@H](CCC(=O)O)C(=O)N[C@H](CCC(=O)O)C(=O)N[C@H](CCC(=O)O)C(=O)N[C@H](CO)C(=O)N[C@H](CO)C(=O)N[C@@H](CCCCN=[N+]=[N-])C(N)=O)NC(=O)[C@H](Cc2ccc(O)cc2)N(C)C(=O)[C@H](Cc2cccc(C(=O)O)c2)NC(=O)[C@H](CCCNC(=N)N)NC(=O)[C@H](CCC(=O)NCCOCCOCCOCCOCCOCCOCCOCCOC)NC(=O)[C@H]([C@@H](C)CC)NC1=O [compound 347],1 to 100

# Results, then the compound that gave them:
row,Kd [nM],SMILES
1,1 to 100,CC[C@H](C)[C@@H]1NC(=O)[C@H](Cc2ccc(OCC(=O)O)cc2)NC(=O)[C@H](Cc2ccc(O)cc2)NC(=O)[C@H](CC(N)=O)NC(=O)[C@H](Cc2cn(CC(=O)O)c3ccccc23)NC(=O)[C@H](C(C)C)NC(=O)[C@H](Cc2cccc(Cl)c2)N(C)C(=O)[C@H](C(C)C)NC(=O)[C@H](C)NC(=O)CSC[C@@H](C(=O)NCC(=O)N[C@H](CCC(=O)O)C(=O)N[C@H](CCC(=O)O)C(=O)N[C@H](CCC(=O)O)C(=O)N[C@H](CO)C(=O)N[C@H](CO)C(=O)N[C@@H](CCCCN=[N+]=[N-])C(N)=O)NC(=O)[C@H](Cc2ccc(O)cc2)N(C)C(=O)[C@H](Cc2ccncc2)NC(=O)[C@H](CCCCN2CCOCC2)NC(=O)[C@H](CCC(N)=O)NC(=O)[C@H]([C@@H](C)CC)NC1=O [compound 346]
2,1 to 100,CC[C@H](C)[C@@H]1NC(=O)[C@H](Cc2ccc(OCC(=O)O)cc2)NC(=O)[C@H](Cc2ccc(O)cc2)NC(=O)[C@H](CC(N)=O)NC(=O)[C@H](Cc2cn(CC(=O)O)c3ccccc23)NC(=O)[C@H](C(C)C)NC(=O)[C@H](Cc2cccc(Cl)c2)N(C)C(=O)[C@H](C(C)C)NC(=O)[C@H](C)NC(=O)CSC[C@@H](C(=O)NCC(=O)N[C@H](CCC(=O)O)C(=O)N[C@H](CCC(=O)O)C(=O)N[C@H](CCC(=O)O)C(=O)N[C@H](CO)C(=O)N[C@H](CO)C(=O)N[C@@H](CCCCN=[N+]=[N-])C(N)=O)NC(=O)[C@H](Cc2ccc(O)cc2)N(C)C(=O)[C@H](Cc2cccc(C(=O)O)c2)NC(=O)[C@H](CCCCN2CCOCC2)NC(=O)[C@H](CCCCN2CCOCC2)NC(=O)[C@H]([C@@H](C)CC)NC1=O [compound 348]
